Drawing on publication PMC9077246 (2018), this text covers IC50 for 3 compounds.

Amino acid sequences for entries named in this document (tags omitted).
UniProt P27338, whole entry, species assumed: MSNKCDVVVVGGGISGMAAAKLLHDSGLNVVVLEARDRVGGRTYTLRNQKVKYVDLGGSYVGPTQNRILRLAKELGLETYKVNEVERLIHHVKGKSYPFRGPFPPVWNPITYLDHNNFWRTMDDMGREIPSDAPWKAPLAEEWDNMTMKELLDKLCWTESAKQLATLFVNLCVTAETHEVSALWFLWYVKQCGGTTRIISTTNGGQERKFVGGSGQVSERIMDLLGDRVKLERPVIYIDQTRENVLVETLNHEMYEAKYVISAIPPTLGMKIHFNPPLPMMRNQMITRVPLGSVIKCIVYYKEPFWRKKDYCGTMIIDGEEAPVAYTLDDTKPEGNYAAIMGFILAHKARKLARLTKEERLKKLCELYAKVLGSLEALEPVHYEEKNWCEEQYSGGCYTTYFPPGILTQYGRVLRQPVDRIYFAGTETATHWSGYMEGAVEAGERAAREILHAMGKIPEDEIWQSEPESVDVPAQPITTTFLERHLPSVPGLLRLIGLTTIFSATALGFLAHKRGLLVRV
UniProt P21397, whole entry, species assumed: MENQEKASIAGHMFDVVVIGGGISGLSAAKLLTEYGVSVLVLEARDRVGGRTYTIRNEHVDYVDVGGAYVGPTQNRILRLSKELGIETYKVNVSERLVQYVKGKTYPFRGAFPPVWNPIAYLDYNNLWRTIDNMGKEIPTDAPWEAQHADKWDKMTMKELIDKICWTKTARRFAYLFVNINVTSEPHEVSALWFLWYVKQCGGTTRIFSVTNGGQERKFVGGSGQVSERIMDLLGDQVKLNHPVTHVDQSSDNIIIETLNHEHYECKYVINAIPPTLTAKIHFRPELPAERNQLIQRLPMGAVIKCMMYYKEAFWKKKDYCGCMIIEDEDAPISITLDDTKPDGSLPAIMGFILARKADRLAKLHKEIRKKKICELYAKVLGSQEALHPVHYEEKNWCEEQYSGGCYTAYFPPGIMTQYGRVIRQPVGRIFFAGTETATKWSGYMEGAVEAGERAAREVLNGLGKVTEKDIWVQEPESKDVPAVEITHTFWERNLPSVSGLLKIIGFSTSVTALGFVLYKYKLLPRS

One may read the IC50 as the concentration that gives 50% inhibition. A higher IC50 goes with lower potency.

One assay deals with MAO-B (Homo sapiens, UniProt P27338). Description: biochemical. Conditions: IC50, Table 1, mean ± SEM, eight-point experiments, three independent experiments.
The next assay addresses MAO-A (Homo sapiens, UniProt P21397). Description: biochemical. Conditions: IC50, Table 1, mean ± SEM, eight-point experiments, three independent experiments.

Counter-ions that a name gives are not always drawn.

Compound `NC1CCC(N[C@@H]2C[C@H]2c2ccccc2)CC1` (stereo partly drawn) [Compound 6, N1-[(1R, 2S)-2-phenylcyclopropyl]cyclohexane-1,4-diamine dihydrochloride, reference compound] displayed an IC50 against MAO-B of 194 ± 114 µM.

As to `N[C@@H]1CC12CCc1ccccc12` (stereo partly drawn) [Compound 8a, (2R)-2′,3′-Dihydrospiro[cyclopropane-1,1′-inden]-2-amine hydrochloride], at MAO-A, the IC50 was more than 100 µM.

The compound `N[C@H]1CC12CCc1ccccc12` (stereo partly drawn) [Compound 8b, (2S)-2′,3′-Dihydrospiro[cyclopropane-1,1′-inden]-2-amine hydrochloride] registered an IC50 against MAO-A of more than 100 µM.
